Legend:
[1] = molecular target: T1, Polyunsaturated fatty acid lipoxygenase ALOX15 (Oryctolagus cuniculus, UniProt P12530); assay: Inhibition of rabbit 15-LO using linoleic acid by standard colorimetric assay
T1 sequence (P12530 whole entry): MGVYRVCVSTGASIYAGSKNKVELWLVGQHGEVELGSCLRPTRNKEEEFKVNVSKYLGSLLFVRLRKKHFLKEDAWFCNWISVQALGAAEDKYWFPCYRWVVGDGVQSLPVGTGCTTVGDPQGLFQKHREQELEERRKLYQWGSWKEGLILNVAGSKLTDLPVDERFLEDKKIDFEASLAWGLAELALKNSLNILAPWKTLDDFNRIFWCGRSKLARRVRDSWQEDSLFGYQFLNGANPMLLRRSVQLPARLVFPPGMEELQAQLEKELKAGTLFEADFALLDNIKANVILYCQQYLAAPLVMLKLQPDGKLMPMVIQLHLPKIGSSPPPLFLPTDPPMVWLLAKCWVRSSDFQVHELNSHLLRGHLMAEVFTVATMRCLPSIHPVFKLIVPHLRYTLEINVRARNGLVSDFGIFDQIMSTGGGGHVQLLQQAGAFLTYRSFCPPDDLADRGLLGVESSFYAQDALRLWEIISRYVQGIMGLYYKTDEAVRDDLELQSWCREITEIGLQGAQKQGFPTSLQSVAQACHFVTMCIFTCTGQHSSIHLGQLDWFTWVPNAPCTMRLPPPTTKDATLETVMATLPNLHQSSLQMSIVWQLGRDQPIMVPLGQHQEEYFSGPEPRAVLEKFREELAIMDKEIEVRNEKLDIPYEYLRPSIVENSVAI

[2] = molecular target: T1, Polyunsaturated fatty acid lipoxygenase ALOX15; assay: Inhibition of rabbit 15-LO using arachidonic acid by standard colorimetric assay

## CCN([C@@H]1CCN(C(C)c2ccc(F)cc2)C1)S(=O)(=O)NCCc1c(-c2cccs2)n[nH]c1-c1cnccn1 (some centres not stated)
[1]
  IC50: 1.4 nM
[2]
  IC50: 3.1 nM
